From US4935404A
Like-named read-outs stand apart in the source and are kept apart here.

Amino acid sequences for entries named in this document (tags omitted). Residues count along the entry.
UniProt P13943, 99-468 limits assumed: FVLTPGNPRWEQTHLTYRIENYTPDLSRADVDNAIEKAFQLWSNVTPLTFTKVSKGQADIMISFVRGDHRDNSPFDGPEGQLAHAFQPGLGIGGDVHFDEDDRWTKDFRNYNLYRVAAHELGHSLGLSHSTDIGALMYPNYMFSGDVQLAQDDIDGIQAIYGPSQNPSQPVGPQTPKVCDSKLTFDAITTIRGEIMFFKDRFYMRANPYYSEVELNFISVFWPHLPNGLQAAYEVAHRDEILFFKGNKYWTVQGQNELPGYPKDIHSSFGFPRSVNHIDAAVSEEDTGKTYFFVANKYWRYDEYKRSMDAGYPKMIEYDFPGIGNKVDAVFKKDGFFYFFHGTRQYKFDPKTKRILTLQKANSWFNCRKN
UniProt P03956, 100-469 limits assumed: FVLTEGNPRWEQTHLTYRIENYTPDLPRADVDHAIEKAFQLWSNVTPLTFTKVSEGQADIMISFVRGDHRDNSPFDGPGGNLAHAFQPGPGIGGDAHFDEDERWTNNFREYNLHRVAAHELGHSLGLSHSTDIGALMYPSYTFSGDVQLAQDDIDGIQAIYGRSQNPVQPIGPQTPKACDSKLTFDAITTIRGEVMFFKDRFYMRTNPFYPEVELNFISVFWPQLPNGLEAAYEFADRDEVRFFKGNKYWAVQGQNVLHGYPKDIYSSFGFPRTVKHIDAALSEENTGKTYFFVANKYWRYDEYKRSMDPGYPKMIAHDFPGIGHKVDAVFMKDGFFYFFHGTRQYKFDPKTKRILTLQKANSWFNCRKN

Key:
[1] = target: purified rabbit bone collagenase (Oryctolagus cuniculus, UniProt P13943); assay: Collagenase inhibitor assay, rabbit bone collagenase
Protocol: (§1) The test is performed essentially as in Cawston and Barrett Anal. Biochem. 99, 340-345 (1979). Compounds for testing are dissolved in methanol and added to purified rabbit bone collagenase or human collagenase purified from culture supernatants from the human lung fibroblast cell line, WI-38, diluted in a suitable aqueous buffer. After a 5 min pre-incubation at 37° C., the assay tubes are cooled to 4° C. and ^14 C-acetylated rat skin Type I collagen is added. The assay tubes are incubated at 37° C. overnight. The ^14 C-collagen forms insoluble fibrils which are the substrate for the enzyme.
(§2) To terminate the assay, the assay tubes are spun at 12000 rpm for 25 min. Undigested ^14 C-collagen remains as insoluble fibrils and is pelleted, while digested ^14 C-collagen remains as soluble peptides in the supernatant. A sample of the supernatant is taken for liquid scintillation counting.
(§3) The activity of collagenase inhibitors (IC50 : 50% inhibitory concentration) is expressed as the concentration of compound that inhibits a known (standard) concentration of enzyme by 50%, or as the % inhibition of the collagen degradation caused by the known (standard) concentration of enzyme, at a stated concentration of the compound.

[2] = target: human collagenase purified from culture supernatants from the human lung fibroblast cell line, WI-38 (Homo sapiens, UniProt P03956); assay: Collagenase inhibitor assay, human lung fibroblast collagenase; conditions: read-out: Inhibition of human lung fibroblast collagenase IC50; collagenase from WI-38 culture supernatants; 14C-acetylated rat skin Type I collagen substrate
Protocol: as §1, §2, §3

Row | IC50 ([1]; read-out: Inhibition of rabbit bone collagenase IC50, 14C-acetylated rat skin Type I collagen substrate, 37° C. overnight, tested form: disodium salt) | IC50 ([1]; read-out: Inhibition of rabbit bone collagenase IC50 (same expt), isomers A, B and A/B compared in the same expt) | IC50 ([1]; read-out: Inhibition of rabbit bone collagenase IC50, 14C-acetylated rat skin Type I collagen substrate, 37° C. overnight) | IC50 [2] | SMILES
1 | 27000 nM |  |  |  | CNC(=O)[C@H](Cc1ccc(OC)cc1)NC(=O)C(CC(C)C)NCP(=O)(O)O (some centres unmarked)
2 |  | 1000 nM | 275 to 1900 nM | 510 nM | CNC(=O)[C@H](Cc1ccc(OC)cc1)NC(=O)C(CC(C)C)NC(C)P(=O)(O)O (single isomer, unassigned) [1 A/B]
3 |  |  |  | 330 nM | CCC(NC(CC(C)C)C(=O)N[C@@H](Cc1ccc(OC)cc1)C(=O)NC)P(=O)(O)O (single isomer, unassigned) [3 A/B]
